This experiment has as its target delta opioid receptor naturally expressed by NG 108-15 cells (UniProt P32300). Put plainly: Table 1, NG 108-15 column (method not described).

The text below walks through data of patent US6562587 (ASTRA PHARMA, dated 2003).

As to [D-Ala^2, D-Leu^5]-enkephalin (peptide), the PKi amounted to 8.7.
